Molecular target: T1, full length GAK protein N-terminally fused with NanoLuc luciferase (Homo sapiens, UniProt O14976)
T1 sequence (O14976 2-1311): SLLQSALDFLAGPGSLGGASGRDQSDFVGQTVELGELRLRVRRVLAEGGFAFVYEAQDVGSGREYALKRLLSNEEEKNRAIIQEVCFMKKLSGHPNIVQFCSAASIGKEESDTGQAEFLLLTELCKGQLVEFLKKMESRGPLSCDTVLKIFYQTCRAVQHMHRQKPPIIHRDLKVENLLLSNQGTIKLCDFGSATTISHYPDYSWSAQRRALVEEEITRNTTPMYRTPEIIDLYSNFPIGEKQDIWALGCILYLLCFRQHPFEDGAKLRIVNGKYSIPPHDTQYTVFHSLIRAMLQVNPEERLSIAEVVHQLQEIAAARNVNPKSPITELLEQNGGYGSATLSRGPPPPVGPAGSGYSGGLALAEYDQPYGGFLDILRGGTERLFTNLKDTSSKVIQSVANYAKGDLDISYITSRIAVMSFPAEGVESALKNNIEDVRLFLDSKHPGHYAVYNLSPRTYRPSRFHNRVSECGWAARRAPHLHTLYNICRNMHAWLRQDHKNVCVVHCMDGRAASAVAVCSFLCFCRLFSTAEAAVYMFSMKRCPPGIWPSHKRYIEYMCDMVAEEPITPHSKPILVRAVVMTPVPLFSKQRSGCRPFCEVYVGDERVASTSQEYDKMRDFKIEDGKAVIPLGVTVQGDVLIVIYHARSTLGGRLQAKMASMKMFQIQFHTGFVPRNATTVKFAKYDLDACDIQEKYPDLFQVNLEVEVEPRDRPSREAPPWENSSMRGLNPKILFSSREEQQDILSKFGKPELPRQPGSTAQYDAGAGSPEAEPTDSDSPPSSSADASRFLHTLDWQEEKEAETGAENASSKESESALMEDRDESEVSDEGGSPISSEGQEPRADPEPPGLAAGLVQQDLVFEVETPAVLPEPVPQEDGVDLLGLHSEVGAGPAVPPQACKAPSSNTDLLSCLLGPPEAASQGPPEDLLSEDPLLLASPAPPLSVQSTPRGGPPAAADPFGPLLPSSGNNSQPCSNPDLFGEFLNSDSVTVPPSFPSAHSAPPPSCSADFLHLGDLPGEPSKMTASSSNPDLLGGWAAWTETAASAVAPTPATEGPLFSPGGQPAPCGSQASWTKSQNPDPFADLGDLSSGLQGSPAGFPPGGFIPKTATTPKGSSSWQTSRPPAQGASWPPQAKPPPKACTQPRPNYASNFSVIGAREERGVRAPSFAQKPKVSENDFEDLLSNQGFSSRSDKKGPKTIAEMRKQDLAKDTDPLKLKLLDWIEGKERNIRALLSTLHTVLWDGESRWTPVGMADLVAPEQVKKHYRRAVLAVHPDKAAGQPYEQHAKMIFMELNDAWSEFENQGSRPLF
Test: nanoBRET cellular target engagement
Type: cell-based
Details: HEK293T cells, tracer displacement, n=[…] mean

`COc1cc(Nc2ccnc3ccc(Br)cc23)cc(OC)c1OC` [compound 2, SGC-GAK-1] gave an IC50 of 48 nM.

From publication doi:10.1101/757047v1 (biorxiv, 2019)
